# Data as given in patent US8759377B2, “Substituted dioxopiperidines and dioxopyrrolidines as MGLUR4 allosteric potentiators, compositions, and methods of treating neurological dysfunction” (Vanderbilt University, priority 2009, dated 2014).
# Protein sequences, listed by entry. Tags and fused reporters are not part of them. Residues count along the entry.
# UniProt Q14833, 33-912: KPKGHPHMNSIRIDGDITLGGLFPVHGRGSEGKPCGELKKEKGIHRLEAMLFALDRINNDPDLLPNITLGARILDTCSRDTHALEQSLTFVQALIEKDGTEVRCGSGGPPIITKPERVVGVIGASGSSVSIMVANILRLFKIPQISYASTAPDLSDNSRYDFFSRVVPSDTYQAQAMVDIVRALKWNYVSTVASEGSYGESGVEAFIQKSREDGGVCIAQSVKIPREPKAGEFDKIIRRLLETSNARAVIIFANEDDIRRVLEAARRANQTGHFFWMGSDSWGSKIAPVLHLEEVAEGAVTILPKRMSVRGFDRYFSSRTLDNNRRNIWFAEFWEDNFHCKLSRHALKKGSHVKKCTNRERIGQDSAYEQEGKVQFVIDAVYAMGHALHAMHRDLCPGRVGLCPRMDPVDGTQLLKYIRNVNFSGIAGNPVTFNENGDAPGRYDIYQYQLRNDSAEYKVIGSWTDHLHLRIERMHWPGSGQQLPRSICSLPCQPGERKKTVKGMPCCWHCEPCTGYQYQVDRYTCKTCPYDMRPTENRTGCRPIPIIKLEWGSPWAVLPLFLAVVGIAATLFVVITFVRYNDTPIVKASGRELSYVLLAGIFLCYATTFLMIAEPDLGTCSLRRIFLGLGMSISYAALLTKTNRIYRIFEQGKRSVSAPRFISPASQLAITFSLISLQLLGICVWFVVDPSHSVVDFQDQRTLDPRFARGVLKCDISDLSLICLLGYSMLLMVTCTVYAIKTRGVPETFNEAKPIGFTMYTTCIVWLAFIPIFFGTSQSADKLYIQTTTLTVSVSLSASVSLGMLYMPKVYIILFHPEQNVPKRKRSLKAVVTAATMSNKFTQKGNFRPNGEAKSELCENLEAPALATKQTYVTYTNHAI
# Target: T1, human mGluR4 (Homo sapiens, UniProt Q14833)
# T1 construct: expressed in transfected cells; host or cells: CHO cells
# Assay: human mGluR4 potentiation, Ca2+-sensitive dye fluorescence assay in transfected CHO cells
# Format: cell-based
# Details: EC50 for potentiation, human mGluR4, with EC20 concentration of agonist; read-out: hEC50
# Method: The disclosed compounds and compositions can be evaluated for their ability to act as a potentiator of metabotropic glutamate receptor activity, in particular mGluR4 activity, by any suitable known methodology known in the art. For example, Chinese Hamster Ovary (CHO) cells transfected with human mGluR4 or HEK cells co-transfected with rat mGluR4 and the G-protein regulated Inwardly Rectifying Potassium channel (GIRK) were plated in clear bottom assay plates for assay in a Hamamatsu FDSS Fluorometric Plate Reader. The cells were loaded with either a Ca2+-sensitive fluorescent dye or the thallium responsive dye and the plates were washed and placed into a suitable kinetic plate reader. For human mGluR4 assays, a fluorescence baseline was established for 3-5 seconds, the disclosed compounds were then added to the cells, and the response in cells was measured. Approximately two and a half minutes later, a concentration of mGluR4 orthosteric agonist (e.g. glutamate or L-AP4) eliciting approximately 20% (EC20) of the maximal agonist response was added to the cells, and the response was measured. Two minutes later, a concentration of mGluR4 agonist (e.g. glutamate or L-AP4) eliciting 80% (EC80) of the maximal agonist response was added to the cells, and the response was measured. […]
row,Structure (SMILES),EC50 [nM]
1,"O=C(Nc1ccc(N2C(=O)CC(c3ccccc3)C2=O)c(Cl)c1)c1ccccn1 (centres unmarked) [Example 3, N-(3-chloro-4-(2,5-dioxo-3-phenylpyrrolidin-1-yl)phenyl)picolinamide]",771
2,"O=C(Nc1ccc(N2C(=O)CC3(CCCCC3)C2=O)c(Cl)c1)c1ccccn1 [Example 15, N-(3-chloro-4-(1,3-dioxo-2-azaspiro[4.5]decan-2-yl)phenyl)picolinamide]",135
